Measured values from PubChem BioAssay AID488796 (The Scripps Research Institute Molecular Screening Center, 2010).
This is a selection; strong and weak results do not stand in their true shares. Calls of active or inactive are those of the source.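 How the source made its calls: active means mean inhibition across replicates above the hit cutoff set by the earlier primary screen (cut at about 15% in these data); inactive means the rest.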

The chains behind the UniProt entries cited, without tags or fusion partners.
UniProt Q9UM07, whole entry: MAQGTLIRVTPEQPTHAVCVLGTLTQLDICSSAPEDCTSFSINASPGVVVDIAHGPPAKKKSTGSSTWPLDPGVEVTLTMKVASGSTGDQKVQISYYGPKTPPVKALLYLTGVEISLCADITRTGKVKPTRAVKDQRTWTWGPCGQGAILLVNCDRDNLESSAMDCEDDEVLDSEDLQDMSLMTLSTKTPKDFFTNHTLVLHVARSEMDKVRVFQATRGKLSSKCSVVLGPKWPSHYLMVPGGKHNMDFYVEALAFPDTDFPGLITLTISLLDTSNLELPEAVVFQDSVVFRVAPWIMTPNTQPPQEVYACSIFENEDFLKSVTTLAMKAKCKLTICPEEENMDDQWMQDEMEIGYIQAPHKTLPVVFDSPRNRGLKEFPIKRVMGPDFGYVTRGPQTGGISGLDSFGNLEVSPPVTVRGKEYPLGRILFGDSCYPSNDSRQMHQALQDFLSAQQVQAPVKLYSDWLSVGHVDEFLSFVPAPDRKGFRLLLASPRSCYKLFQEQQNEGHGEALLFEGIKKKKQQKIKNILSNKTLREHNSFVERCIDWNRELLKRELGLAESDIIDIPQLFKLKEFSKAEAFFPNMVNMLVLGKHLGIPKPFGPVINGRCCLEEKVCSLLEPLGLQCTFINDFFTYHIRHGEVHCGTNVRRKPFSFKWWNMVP

Target: Protein-arginine deiminase type-4 (Homo sapiens) (UniProt Q9UM07)
Experiment: human PAD4 inhibitors, confirmation, biochemical, fluorescence polarization (AID 488796);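 further: inhibitors block active-site labeling by the probe so polarization falls; 0% = PAD4 with probe and DMSO and 100% = probe without PAD4 enzyme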
Settings: recombinant PAD4, RCA probe fluorescence polarization; at 6.36 µM; hits give high values

Row | SMILES | inhibition
1 | O=[N+]([O-])c1cc([N+](=O)[O-])c(Nc2ccccn2)c([N+](=O)[O-])c1 | active: 33.7%
2 | CC1=C2N=C(C=C3N=C(C(C)=C4[N-][C@@](C)([C@@H]5N=C1[C@](C)(CCC(=O)NC[C@@H](C)OP(=O)([O-])O[C@H]1[C@@H](O)[C@@H](n6cnc7cc(C)c(C)cc76)O[C@@H]1CO)[C@H]5CC(N)=O)[C@@](C)(CC(N)=O)[C@@H]4CCC(N)=O)[C@@](C)(CC(N)=O)[C@@H]3CCC(N)=O)C(C)(C)[C@@H]2CCC(N)=O.[C-]#N.[Co+3] | inactive: 9.21%
